Earlier results on 1 substance are cited in PMC5082792 (PLoS ONE, 2016).

On the set-up of this series: method as in PMID 21383098. Conditions: co-administration of ETR, 14 healthy adults; cited from earlier work.

Consider maraviroc, for which the “decrease of maraviroc exposure (AUC0–12h)” value is 53%.
